According to ChEMBL document CHEMBL3414430 (J Med Chem, 2015):

Molecular target: T1, Histone deacetylase 8 (Homo sapiens, UniProt Q9BY41)
T1 sequence (Q9BY41 whole entry): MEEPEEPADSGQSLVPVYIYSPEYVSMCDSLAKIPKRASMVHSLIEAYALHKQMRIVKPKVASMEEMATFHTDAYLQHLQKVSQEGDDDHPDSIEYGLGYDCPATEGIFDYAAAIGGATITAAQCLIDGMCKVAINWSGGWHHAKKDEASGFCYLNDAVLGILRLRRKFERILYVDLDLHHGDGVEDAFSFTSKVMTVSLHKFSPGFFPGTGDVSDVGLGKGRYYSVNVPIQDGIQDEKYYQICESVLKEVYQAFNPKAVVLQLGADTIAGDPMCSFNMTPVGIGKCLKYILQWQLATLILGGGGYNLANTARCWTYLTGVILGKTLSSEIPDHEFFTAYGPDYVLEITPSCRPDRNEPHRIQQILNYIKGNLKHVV

- IC50: 660 nM
Compound: O=C(CCCCCCC(=O)Nc1ccccc1)NO [VORINOSTAT]
